From patent US20120022024A1, “ANTI-BACTERIAL COMPOSITIONS AND METHODS INCLUDING TARGETING VIRULENCE FACTORS OF STAPHYLOCOCCUS AUREUS” (priority 2009, published 2012)
Structures can show the parent of a compound that is named as a salt.

Chains of the proteins cited; added tags and fusions are not shown. Lines headed by an entry give the natural chain unless they say otherwise; changes in a name come on top.
UniProt A9JQL9: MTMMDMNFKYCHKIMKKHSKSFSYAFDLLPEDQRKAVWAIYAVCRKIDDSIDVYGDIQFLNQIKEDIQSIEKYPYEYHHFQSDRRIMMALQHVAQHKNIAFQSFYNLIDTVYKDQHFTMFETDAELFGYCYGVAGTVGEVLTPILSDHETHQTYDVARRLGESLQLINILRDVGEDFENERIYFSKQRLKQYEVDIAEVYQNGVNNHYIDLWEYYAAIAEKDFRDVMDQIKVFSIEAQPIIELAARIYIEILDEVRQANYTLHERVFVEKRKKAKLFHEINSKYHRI

Biological target: S. aureus CrtM (dehydrosqualene synthase) (Staphylococcus aureus, UniProt A9JQL9)
Assay: CrtM enzyme inhibition assay
Settings: read-out: CrtM enzyme experimental activity IC50; Table 5

CCn1c2ccccc2c2cc(CCCC(P(=O)(O)O)S(=O)(=O)O)ccc21 (stereo not shown) [Compound 19, 1-Phosphono-4-(9-ethylcarbazole-3-yl)butylsulfonic acid tripotassium salt]
IC50: 170 µM
